Source: the Kinase Knowledgebase extract (Sharma et al. 2016)

The chains behind the UniProt entries cited, without tags or fusion partners. Where a name states a change or a piece, a line headed by the entry shows the natural chain unless it says otherwise.
UniProt P42336, whole entry, looked up: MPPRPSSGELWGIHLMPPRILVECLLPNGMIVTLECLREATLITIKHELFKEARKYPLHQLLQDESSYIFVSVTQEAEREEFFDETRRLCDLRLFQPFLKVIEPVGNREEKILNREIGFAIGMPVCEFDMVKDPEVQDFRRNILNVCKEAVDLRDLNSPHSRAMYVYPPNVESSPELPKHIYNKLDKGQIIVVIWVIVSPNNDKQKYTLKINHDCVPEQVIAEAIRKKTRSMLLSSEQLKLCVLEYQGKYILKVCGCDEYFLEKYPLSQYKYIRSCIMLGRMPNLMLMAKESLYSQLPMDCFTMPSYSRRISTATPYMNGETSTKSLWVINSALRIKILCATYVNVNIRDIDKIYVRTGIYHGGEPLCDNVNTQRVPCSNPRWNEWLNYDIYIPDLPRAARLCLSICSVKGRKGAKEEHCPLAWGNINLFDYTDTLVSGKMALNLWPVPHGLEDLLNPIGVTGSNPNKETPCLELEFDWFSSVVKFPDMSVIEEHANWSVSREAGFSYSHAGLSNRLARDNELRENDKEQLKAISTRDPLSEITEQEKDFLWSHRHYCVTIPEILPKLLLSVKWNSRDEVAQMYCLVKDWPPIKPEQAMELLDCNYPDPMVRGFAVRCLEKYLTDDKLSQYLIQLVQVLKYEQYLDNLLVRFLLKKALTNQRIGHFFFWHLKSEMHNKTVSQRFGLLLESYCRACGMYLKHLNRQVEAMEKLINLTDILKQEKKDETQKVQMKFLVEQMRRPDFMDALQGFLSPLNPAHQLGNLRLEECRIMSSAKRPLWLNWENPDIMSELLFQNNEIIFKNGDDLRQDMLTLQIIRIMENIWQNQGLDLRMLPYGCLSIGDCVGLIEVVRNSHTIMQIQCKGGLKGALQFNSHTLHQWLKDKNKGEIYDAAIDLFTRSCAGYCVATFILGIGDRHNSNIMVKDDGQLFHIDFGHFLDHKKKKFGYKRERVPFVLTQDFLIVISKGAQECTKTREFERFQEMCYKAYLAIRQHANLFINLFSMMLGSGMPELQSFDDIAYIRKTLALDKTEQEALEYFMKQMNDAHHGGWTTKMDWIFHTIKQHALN
UniProt P42338: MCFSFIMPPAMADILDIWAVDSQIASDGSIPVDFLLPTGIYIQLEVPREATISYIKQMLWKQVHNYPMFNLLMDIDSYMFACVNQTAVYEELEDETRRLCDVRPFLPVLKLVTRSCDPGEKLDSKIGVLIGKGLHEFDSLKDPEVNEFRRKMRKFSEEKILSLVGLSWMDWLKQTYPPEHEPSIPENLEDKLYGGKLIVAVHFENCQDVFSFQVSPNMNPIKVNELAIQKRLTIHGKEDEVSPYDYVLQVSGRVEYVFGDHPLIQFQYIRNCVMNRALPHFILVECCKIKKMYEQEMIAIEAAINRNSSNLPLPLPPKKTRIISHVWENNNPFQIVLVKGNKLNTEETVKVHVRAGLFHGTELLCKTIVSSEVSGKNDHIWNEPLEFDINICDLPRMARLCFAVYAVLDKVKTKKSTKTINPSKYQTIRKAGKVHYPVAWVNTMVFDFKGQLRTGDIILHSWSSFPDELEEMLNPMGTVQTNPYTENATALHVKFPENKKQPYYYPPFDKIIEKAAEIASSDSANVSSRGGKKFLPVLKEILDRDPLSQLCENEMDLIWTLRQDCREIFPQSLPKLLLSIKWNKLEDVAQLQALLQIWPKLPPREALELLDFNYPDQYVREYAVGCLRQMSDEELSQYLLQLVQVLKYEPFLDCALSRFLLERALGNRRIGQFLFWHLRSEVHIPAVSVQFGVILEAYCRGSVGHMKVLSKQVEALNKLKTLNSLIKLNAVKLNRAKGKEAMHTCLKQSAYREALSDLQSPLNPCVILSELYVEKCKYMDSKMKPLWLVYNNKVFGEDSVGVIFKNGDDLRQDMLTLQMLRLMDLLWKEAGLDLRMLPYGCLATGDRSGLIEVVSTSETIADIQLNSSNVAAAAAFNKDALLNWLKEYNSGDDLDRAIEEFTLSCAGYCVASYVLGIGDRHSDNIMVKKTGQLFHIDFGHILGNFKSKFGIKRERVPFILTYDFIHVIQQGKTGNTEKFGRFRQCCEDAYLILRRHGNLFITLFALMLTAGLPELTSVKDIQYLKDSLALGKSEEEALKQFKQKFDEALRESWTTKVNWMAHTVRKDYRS
UniProt O00329: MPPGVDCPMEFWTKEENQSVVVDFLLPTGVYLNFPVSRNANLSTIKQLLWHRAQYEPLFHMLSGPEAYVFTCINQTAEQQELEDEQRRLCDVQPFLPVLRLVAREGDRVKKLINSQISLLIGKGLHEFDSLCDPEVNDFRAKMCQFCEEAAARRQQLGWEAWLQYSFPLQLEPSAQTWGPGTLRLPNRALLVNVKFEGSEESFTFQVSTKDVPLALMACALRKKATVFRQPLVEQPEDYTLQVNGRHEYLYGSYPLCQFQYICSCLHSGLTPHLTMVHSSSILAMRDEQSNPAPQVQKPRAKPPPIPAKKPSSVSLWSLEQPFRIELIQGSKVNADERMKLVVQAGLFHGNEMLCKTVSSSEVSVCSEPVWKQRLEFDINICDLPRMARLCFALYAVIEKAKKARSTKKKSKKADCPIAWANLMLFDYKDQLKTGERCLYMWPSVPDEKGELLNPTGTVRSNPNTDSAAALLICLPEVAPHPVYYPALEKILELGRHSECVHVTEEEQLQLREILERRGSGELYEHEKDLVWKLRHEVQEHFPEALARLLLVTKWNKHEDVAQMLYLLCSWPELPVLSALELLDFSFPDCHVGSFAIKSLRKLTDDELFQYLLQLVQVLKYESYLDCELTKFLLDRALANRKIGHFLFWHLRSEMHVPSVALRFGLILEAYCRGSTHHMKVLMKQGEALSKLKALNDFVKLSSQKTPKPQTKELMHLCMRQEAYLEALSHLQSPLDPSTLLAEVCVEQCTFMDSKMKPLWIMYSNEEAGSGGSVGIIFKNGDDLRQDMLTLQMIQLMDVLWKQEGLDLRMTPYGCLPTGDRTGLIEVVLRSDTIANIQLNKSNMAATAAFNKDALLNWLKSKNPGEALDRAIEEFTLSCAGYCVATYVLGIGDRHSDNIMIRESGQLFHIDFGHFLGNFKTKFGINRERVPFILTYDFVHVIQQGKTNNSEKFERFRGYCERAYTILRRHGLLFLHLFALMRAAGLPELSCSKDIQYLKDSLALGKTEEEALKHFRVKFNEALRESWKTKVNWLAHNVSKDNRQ
UniProt P48736: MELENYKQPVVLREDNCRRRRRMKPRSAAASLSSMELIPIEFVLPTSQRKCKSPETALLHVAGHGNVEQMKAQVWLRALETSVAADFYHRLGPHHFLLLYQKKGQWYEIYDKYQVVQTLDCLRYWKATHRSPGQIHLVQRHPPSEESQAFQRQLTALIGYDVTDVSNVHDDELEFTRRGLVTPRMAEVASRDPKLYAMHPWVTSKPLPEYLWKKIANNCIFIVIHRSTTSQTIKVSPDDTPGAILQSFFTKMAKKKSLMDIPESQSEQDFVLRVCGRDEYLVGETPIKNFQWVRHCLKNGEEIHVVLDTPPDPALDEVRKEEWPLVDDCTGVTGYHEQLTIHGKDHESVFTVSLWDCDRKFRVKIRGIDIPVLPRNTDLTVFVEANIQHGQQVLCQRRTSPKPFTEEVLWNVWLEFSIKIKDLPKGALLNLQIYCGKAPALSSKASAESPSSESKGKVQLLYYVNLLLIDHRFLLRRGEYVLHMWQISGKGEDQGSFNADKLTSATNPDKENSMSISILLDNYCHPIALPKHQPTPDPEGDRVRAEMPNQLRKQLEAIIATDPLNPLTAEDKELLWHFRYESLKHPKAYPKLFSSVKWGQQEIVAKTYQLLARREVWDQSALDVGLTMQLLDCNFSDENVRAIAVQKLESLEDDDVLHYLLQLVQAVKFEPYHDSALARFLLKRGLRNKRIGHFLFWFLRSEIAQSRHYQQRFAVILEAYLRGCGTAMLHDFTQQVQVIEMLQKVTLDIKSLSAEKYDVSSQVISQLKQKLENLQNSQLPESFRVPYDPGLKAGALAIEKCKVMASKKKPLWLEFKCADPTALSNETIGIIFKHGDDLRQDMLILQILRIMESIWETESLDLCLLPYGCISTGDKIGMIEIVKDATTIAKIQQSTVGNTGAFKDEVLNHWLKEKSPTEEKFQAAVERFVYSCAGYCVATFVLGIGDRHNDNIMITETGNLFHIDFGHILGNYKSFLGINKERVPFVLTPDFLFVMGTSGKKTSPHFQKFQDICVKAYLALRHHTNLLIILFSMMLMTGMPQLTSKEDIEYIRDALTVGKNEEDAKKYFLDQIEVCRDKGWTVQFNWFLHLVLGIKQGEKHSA

Assays:
Assay in all cases: Enzyme Assay
PIK3CA (human) = PIK3CA (human) (UniProt P42336)
PIK3CB (Human) = PIK3CB (Human) (UniProt P42338)
PIK3CD (Human) = PIK3CD (Human) (UniProt O00329)
PIK3CG (human) = PIK3CG (human) (UniProt P48736)

NC(=O)[C@H]1CCCN1C(=O)Nc1nc2ccc(-c3cnc(N)c(C(F)(F)F)c3)cc2s1
IC50 (PIK3CA (human)): 75 nM
IC50 (PIK3CB (Human)): 5500 nM
IC50 (PIK3CD (Human)): 980 nM
IC50 (PIK3CG (human)): 2400 nM
